# Laboratory results: EP4725941A1, “ARYLAMIDE DERIVATIVE HAVING ANTITUMOR ACTIVITY” (priority 2020, dated 2021)
# Tests used:
# Assay type in all cases: cell-based
# [1] = system: A549; experiment: Cell proliferation-inhibiting activity (ATP in viable cells, CellTiter-Glo), A549; settings: Homo sapiens, A549, 96 h, read-out: A549 IC50
# [2] = system: Calu-6; experiment: Cell proliferation-inhibiting activity (ATP in viable cells, CellTiter-Glo), Calu-6; settings: Homo sapiens, Calu-6, 96 h, read-out: Calu-6 IC50
# [3] = system: NCI-H2122; experiment: Cell proliferation-inhibiting activity (ATP in viable cells, CellTiter-Glo), NCI-H2122; settings: Homo sapiens, NCI-H2122, 96 h, read-out: NCI-H2122 IC50
smiles,measurement,setting,value
"O=C(NOC[C@H](O)CO)c1ccc(F)c(F)c1Nc1ccc(I)cc1F [Ref-1, N-[(2R)-2,3-Dihydroxypropoxy]-3,4-difluoro-2-(2-fluoro-4-iodoanilino)benzamide, reference compound]",IC50,[1],7 nM
same,IC50,[2],91 nM
same,IC50,[3],7 nM
